Tests used:
HIV-1 LTR in ACH2 cells = assay: HIV-1 LTR induction assay, TAR RNA qPCR in ACH2 cells; settings: prostratin 1 μM, VPA 1.5 mM; for HIV-1 LTR activity, agents used singly (qPCR for TAR RNA): UCLB-15026
JSC-1 cells = assay: Apoptosis of JSC-1 cells by flow cytometry with pan-caspase inhibitor; assay type: cell-based; settings: Q-VD-OPH 100 nM, 40 h after treatment with UCLB-15026 800 nM or taxol 80 nM

CCCC(CCC)C(=O)O [VPA, valproic acid]
HIV-1 LTR activity, agents used singly (qPCR for TAR RNA) (HIV-1 LTR in ACH2 cells): induced LTR activity

COc1ccc(-c2csc3c2-n2cccc2C3=O)cc1 [UCLB-15026]
LTR induction of 15026 with prostratin compared with prostratin plus VPA (HIV-1 LTR in ACH2 cells): higher levels of LTR induction than prostratin plus VPA
effect of combining 15026 with either prostratin or VPA on LTR activity (HIV-1 LTR in ACH2 cells): potentiate the effect
HIV-1 LTR activity, agents used singly (qPCR for TAR RNA) (HIV-1 LTR in ACH2 cells): induced LTR activity

CC(=O)O[C@@]12C[C@@H](C)[C@@]3(O)[C@@H](C=C(CO)C[C@]4(O)C(=O)C(C)=C[C@@H]34)[C@@H]1C2(C)C [prostratin]
HIV-1 LTR activity, agents used singly (qPCR for TAR RNA) (HIV-1 LTR in ACH2 cells): induced LTR activity

CC(C)[C@H](NC(=O)c1ccc2ccccc2n1)C(=O)N[C@@H](CC(=O)O)C(=O)COc1c(F)cccc1F [Q-VD-OPH]
effect on apoptosis (JSC-1 cells): blocking apoptosis

From patent publication US20130261137A1, “Methods, Compounds and Compositions Relating to Activating a Latent Virus” (ULC BUSINESS PLC, priority 2010, published 2013)
